Columns and labels:
mung bean plants [1] = system: mung bean plants
mung bean plants [2] = test: Plant growth study with salts or compositions comprising zinc or manganese on wood pulp in soil at elevated concentrations; format: in vivo
Method: Mung bean seeds were planted in 2 g of sterile sunshine mix soil in autoclaved jars. […] The beans were transferred into soil with either salt or compositions comprising zinc or manganese loaded on wood pulp after 6 days. The wood pulp, acting as the carrier, was Canfor 350/70-1 (carrier C from Table 1). […] The root length was measured from start of roots to longest root tip. […] The plants to be used in the presence of compositions as disclosed herein were sowed in 2 g of sunshine mix to which 0.1 g of the composition was added, made of various concentrations of zinc or manganese. These were all watered with 5 mL deionized water. The beans grew in this treatment for 9 further days.

manganese chloride [manganese salt]
growth of tomato plants (tomato plants; 1000 ppm concentration in soil, 11 days, FIGS. 6(a), 6(b)): did not negatively impact growth | toxicity for tomato plants (tomato plants; 1000 ppm in soil): did not exhibit toxicity | growth of bean plants (mung bean plants [1]; 1000 ppm concentration in soil, 10 days, FIGS. 5(a), 5(b)): reduced growth | toxicity for bean plants (mung bean plants [1]; 1000 ppm in soil): exhibited toxicity | mung bean stem height and root length growth (mung bean plants [2]; 1000 ppm and 2000 ppm manganese as salt in soil, 9 days, FIGS. 7(a), 7(b)): reduced stem height and root length growth | toxicity for mung bean plants (mung bean plants [2]; 1000 ppm in soil): exhibits toxicity

Source: US11691928B2, “Compositions, systems and methods for delivery of an element in response to biological demand” (Lucent Biosciences, Inc., priority 2018, dated 2023)
